# Literature values in patent US7060295B2, “Formulations for the prevention and treatment of insulin resistance and type 2 diabetes mellitus” (ChronoRX LLC, priority 2000, dated 2006).
# Settings: in vivo
structure (smiles),measurement,value
"CN(C)C(=N)N=C(N)N [Metformin, metformin]",excretion,excreted unchanged in the urine
